We go through one molecule from paper PMC9067401 (Genes & Development, 2022).

This test concerns the target histone H4([…]), yeast (yeast). Put plainly: crystal structure.

B1: Aspergillus fumigatus Asf1 conserved core (AfAsf1, residues 1–154) (domain or fragment)
chain: MSVVSLLGVKIVNNPAPFLAPYQFEITFECLEQLQKDLEWKLTYVGSATSSEYDQELDSLLVGPIPVGVNKFLFEADAPDLKRIPTSEILGVTVILLTCSYDGREFVRVGYYVNNEYDSEELTQDPPAKPIIERIRRNILAEKPRVTRFAIKWD
B1: the binding result is recorded as “binds”.
